# Laboratory results as given in ChEMBL document CHEMBL1129747, “Head group analogs of arachidonylethanolamide, the endogenous cannabinoid ligand” (J Med Chem, 1996).
# Protein sequences, listed by entry. Tags and fused reporters are not part of them.
# UniProt P20272, whole entry: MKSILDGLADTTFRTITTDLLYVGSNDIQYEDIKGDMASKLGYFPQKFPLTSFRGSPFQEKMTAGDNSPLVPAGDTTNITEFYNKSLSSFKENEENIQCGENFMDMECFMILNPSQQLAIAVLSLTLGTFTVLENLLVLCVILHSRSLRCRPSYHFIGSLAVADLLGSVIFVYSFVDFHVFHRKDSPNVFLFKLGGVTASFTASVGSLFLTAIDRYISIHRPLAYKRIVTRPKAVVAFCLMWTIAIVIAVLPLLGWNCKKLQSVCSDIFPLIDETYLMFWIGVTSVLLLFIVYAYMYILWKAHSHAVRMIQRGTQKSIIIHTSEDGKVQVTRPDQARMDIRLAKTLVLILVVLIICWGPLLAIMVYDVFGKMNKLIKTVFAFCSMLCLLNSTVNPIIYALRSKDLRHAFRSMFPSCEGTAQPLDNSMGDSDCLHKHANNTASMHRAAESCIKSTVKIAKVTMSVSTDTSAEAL
# Biological target: Cannabinoid receptor 1 (Rattus norvegicus, UniProt P20272)
# Experiment: Displacement of [3H]CP-55940 from Cannabinoid receptor 1 of rat forebrain membranes
# Assay type: cell membranes, Membrane
row,Compound,Ki [nM]
1,CCCCC/C=C\C/C=C\C/C=C\C/C=C\CCCC(=O)N(C)CCO,2460
2,CCCCC/C=C\C/C=C\C/C=C\C/C=C\CCCC(=O)N(CCO)CCO,174
3,CCCCC/C=C\C/C=C\C/C=C\C/C=C\CCCC(=O)NCCO [ANANDAMIDE],78
